Values of other authors in patent publication US11981711B2, “Methods of treating spinal cord injury using a chondroitin sulfate proteoglycan (CSPG) reduction peptide (CRP) comprising a cell membrane penetrating domain, a CSPG binding domain, and a lysosome targeting domain” (The Cleveland Clinic Foundation, priority 2017, dated 2024).

Details: background statement; cited from earlier work

chondroitinase ABC
thermal stability: low thermal stability
